The record followed here is patent US20070043512A1, “Therapeutic and prophylactic compositions and uses therefor” (priority 2003, published 2007).

This assay concerns aP2 gene expression. Nature of the assay: Real-time PCR, aP2 gene expression in NHBE cells. The assay is classed as cell-based, human. The settings on record: NHBE (HBE) cells, stimuli for 18 h, real-time PCR (FIG. 2). As to the method:
When NHBE cells were 80% confluent and between passage 7 and 8, they were washed in PBS (Gibco) and starved for 24 h in Clonetics bronchial epithelial cell basal medium (BEBM) containing 0.1% w/v BSA. The cells were then exposed to the following stimuli: 10 ng/ml IL-4 (BD), 10 ng/ml IL-13 (BD), 10 ng/ml IL-1β (Peprotech), 20 ng/ml IL-3 (BD), 5 ng/ml IL-6 (BD), 10 ng/ml IL-10 (BD), 28 ng/ml interferon-γ (BD), 10 ng/ml TNFα (Peprotech), 50 ng/ml phorbol myristate acetate (PMA; Sigma) or 100 ng/ml LPS (Sigma).
Total RNA was isolated from cells using the RNeasy Total RNA Isolation Kit (Qiagen, Chatswort, Calif.) or Trizol (Invitrogen, CA) as per the manufacturer's instructions. […]
After an initial denaturation for 10 min at 95° C., the samples were run for 40 cycles at 95° C. […] At the end of each cycle, the fluorescence was measured in a single step in channel F1. […] The temperature was then raised to 95° C. at a rate of 0.1° C./sec and fluorescence was measured continuously (channel F1) to obtain a melting curve for the PCR products. Each gene was normalized to a housekeeping gene GAPDH before fold change was calculated (using crossing point values) to account for variations between different samples. […]
Using the same RNA samples as were used for the microarray experiments, aP2 gene expression was analysed using real-time PCR. […]

B1: IL-3: cytokine stimulus, 20 ng/ml (BD) (protein, UniProt P08700 20-152, looked up)
Interleukin-3: APMTQTTPLKTSWVNCSNMIDEIITHLKQPPLPLLDFNNLNGEDQDILMENNLRRPNLEAFNRAVKSLQNASAIESILKNLLPCLPLATAAPTRHPIHIKDGDWNEFRRKLTFYLKTLENAQAQQTTLSLAIF
Turning to B1, the “Effect on aP2 expression” value is reported as “no effect”.
